# AlphaSeq binding of Ab-91 heavy chain variants to a spike HR2 peptide

From the AlphaSeq antibody data of Engelhart et al. 2022 (doi:10.1038/s41597-022-01779-4), copy in the FLAb collection.

The target is the same throughout: PDVDLGDISGINAS, from the HR2 region of SARS-CoV-2 spike.

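The starting antibody came from a phage panning campaign against this peptide. In library AAYL51, one, two or three CDR residues were substituted; doubles and triples were drawn at random. The scFvs were displayed on barcoded MATa yeast, the peptide on MATalpha yeast. The frequency of each diploid, read from paired DNA barcodes, reflects how well the two displayed proteins bind. Read counts were normalised to the haploid input and turned into Kd by a linear fit to BCL2-family pairs of known affinity, for each replicate. The assay was run in three technical replicates.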

Parent: Ab-91, a human scFv built as VL, the linker GGGGSGGGGSGGGGS, VH. Only the CDRs of the heavy chain vary.
VL: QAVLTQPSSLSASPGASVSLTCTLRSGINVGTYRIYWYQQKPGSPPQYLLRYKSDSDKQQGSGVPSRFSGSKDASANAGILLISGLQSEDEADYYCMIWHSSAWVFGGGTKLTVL
VH: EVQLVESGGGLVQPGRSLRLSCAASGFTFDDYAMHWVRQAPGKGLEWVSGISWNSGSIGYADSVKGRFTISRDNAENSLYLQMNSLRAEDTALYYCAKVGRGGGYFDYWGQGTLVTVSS

Each variant is given by its three heavy chain CDRs, as the data file delimits them; those of the parent are GFTFDDYAMH, GISWNSGSIGYADSVK, VGRGGGYFDY. Values are log10 of the apparent Kd in nM; lower means stronger binding. Replicates are averaged; those with no signal do not enter the mean. Where no diploid with the target was found in that replicate, the entry reads "ND": below detection, most likely a poor binder, though not proof of it.

For GFTFDDYAMH | GISFNQGSIGYADSVK | VGRGGGYFDY, the assay gave 1.95, 2.06, ND (mean 2.01; controls 0 of 9).
For GFTFDDYAMH | DIFWNSGSIGYADSVK | VGRGGGYFDY, the assay gave ND, ND, ND (controls 0 of 9).
For GFTFDDYAMH | GISWNSGSIGYADKHK | VGRGFGYFDY, the assay gave ND, ND, ND (controls 1 of 9).
For GFTFDDYAMH | GISWNSGSIGYADSVK | VGDGGGHFDY, the assay gave 4.92, ND, ND (controls 2 of 9).
For GFTFDDYAMH | GISWNIGSIGYADSVK | VGEGGGYFDY, the assay gave 4.34, 5.71, 5.76 (mean 5.27; controls 6 of 9).
For GFAFDGYAMH | GISWNSGSIGYADSVY | VGRGGGYFDY, the assay gave ND, 5.27, ND (controls 5 of 9).
For WFTFIDYAMH | GISWNSGSIGYADSVK | VGRGGGYFDY, the assay gave 3.99, ND, ND (controls 2 of 9).
For GFTSDDYAMH | YISWNSGSIGYADSVK | VGRGGGYFDY, the assay gave ND, 5.98, ND (controls 3 of 9).
For GFWFDDYAMH | GISWNSGSIGYADSVK | VGRDGGYFDV, the assay gave 2.01, 2.05, 2.13 (mean 2.06; controls 4 of 9).
For GFTFDDYGMH | NISWNSGSIGYADSVN | VGRGGGYFDY, the assay gave ND, ND, ND (controls 1 of 9).
For GFTFDDRAMH | GISWNSGSPGYADSVK | VGRGGKYFDY, the assay gave ND, ND, ND (controls 1 of 9).
For GFTFPDYAMH | GISWNTGSEGYADSVK | VGRGGGYFDY, the assay gave 2.11, 1.85, 1.55 (mean 1.84; controls 2 of 9).
For GFTFDDYAMH | WISWNSGSIGYADSVK | VHRGGGYFDY, the assay gave 5.29, ND, ND (controls 0 of 9).
For GFTFDDYASH | GISWNSQSIGYADSLK | VGRGGGYFDY, the assay gave 4.64, 5.72, ND (mean 5.18; controls 2 of 9).
For AFTFDDYAMH | GISWHSGSIGYADSVK | VGRGGGYFMY, the assay gave ND, 4.84, ND (controls 3 of 9).
For GFTFCTYAAH | GISWNSGSIGYADSVK | VGRGGGYFDY, the assay gave 3.97, 5.64, ND (mean 4.81; controls 1 of 9).
For GFTFDDYFMH | GISWNSGSIEYADSVP | VGRGGGYFDY, the assay gave 4.80, ND, ND (controls 1 of 9).
For GETFDDYAMH | GISWNSGSIGYADSVK | VGRGKGYFDY, the assay gave 4.58, ND, ND (controls 1 of 9).
For GFRFDDRAMH | GISWNSGSIGYADSVK | VGDGGGYFDY, the assay gave ND, 4.39, ND (controls 0 of 9).
For GFTFDDDAMK | GISWNSGSIGYADSVK | VGKGGGYFDY, the assay gave ND, ND, ND (controls 2 of 9).
For GFTFDDYAMR | GISWFSGSIGYADSVK | VGMGGGYFDY, the assay gave 6.73, 4.72, 5.89 (mean 5.78; controls 3 of 9).
For GFTFDDYAMC | GISWNSGSIGYADSVK | VGRGGGYFIY, the assay gave ND, 4.10, ND (controls 0 of 9).
For GFTFDDYRMH | GISWNSGSIGYADSVK | VGRGGTMFDY, the assay gave 3.61, 4.95, ND (mean 4.28; controls 0 of 9).
For GFTFDDYAMH | GISWNTGSIGYADSVK | VGRGCGYFEY, the assay gave ND, ND, ND (controls 0 of 9).
For GFTPDDVAMH | GISWNSGSIGYAHSVK | VGRGGGYFDY, the assay gave ND, 2.64, ND (controls 1 of 9).
For GFTFDDYAMH | GISWNSGSIGQADSHK | VGRGDGYFDY, the assay gave ND, ND, ND (controls 1 of 9).
For GFTFDDYAMH | GISFGSGSIGYADSVK | VGRGYGYFDY, the assay gave 4.31, 6.15, ND (mean 5.23; controls 3 of 9).
For TFTFDDYAMH | GISWLSDSIGYADSVK | VGRGGGYFDY, the assay gave ND, ND, ND (controls 0 of 9).
For GFTFDDYAMH | GIPWNSGSIGYADSVK | VGRGGQYVDY, the assay gave ND, ND, ND (controls 1 of 9).
For GFTFDDYAMA | GISWNSLSIGYADSVK | VGRGSGYFDY, the assay gave ND, ND, ND (controls 2 of 9).
For GFTFDDYVMH | GISWNSGSHGYADSVK | VGRGGGPFDY, the assay gave 2.77, 3.38, 2.74 (mean 2.97; controls 6 of 9).
For GFVFDDYAMH | GISWDSGSIGYADSVK | VGRGGGYYDY, the assay gave 1.19, 1.36, 0.77 (mean 1.11; controls 2 of 9).
For GFTFDDYAMH | GISWLSGSIGYADRVK | VGRGGRYFDY, the assay gave ND, ND, ND (controls 2 of 9).
For GFTFDDYAMA | GNSWNSGSSGYADSVK | VGRGGGYFDY, the assay gave ND, ND, ND (controls 0 of 9).
For GFTFDDYAMH | GISWNSGSIGYADSVK | VGDGGGTFDY, the assay gave ND, ND, ND (controls 0 of 9).
For GFPFDDYIMH | GISWNSGSIGYADSVK | VGRGGRYFDY, the assay gave ND, ND, ND (controls 0 of 9).
For GFTLDDYAMH | GITWNSGSIGYADSVK | VGRGGGYFDY, the assay gave 4.49, 5.32, ND (mean 4.90; controls 1 of 9).
For GFTFDDYATH | GIPWNSGSIGYADSVK | VGRGGGYVDY, the assay gave 4.96, ND, 4.98 (mean 4.97; controls 0 of 9).
For GFTFDDYAMG | KISWNSGSIGYADLVK | VGRGGGYFDY, the assay gave ND, ND, 3.51 (controls 1 of 9).
For GFTFDDYAMH | GISWNSPSIGYADSVK | VGRGGGYFDY, the assay gave ND, ND, ND (controls 0 of 9).
For GFTFDDYAKH | GISWNRTSIGYADSVK | VGRGGGYFDY, the assay gave ND, ND, ND (controls 1 of 9).
For GFTFDDYAMH | GISWNSGSIGYADSVK | VQKIGGYFDY, the assay gave 1.97, 1.94, 1.88 (mean 1.93; controls 2 of 9).
For GFTFDNYAMH | GISWHSGSIGYDDSVK | VGRGGGYFDY, the assay gave 3.45, ND, ND (controls 0 of 9).
For GFGFDDYAMH | GISWNSGSIGYADSQK | VGRGGGYFAY, the assay gave 4.15, ND, ND (controls 1 of 9).

From the list, the first 7 with no signal in any replicate:

CDR-H1	CDR-H2	CDR-H3	replicates, log10 nM	log10 Kd (nM), mean	empty controls
GFTFDDYAMH	DIFWNSGSIGYADSVK	VGRGGGYFDY	ND, ND, ND	ND	0 of 9
GFTFDDYAMH	GISWNSGSIGYADKHK	VGRGFGYFDY	ND, ND, ND	ND	1 of 9
GFTFDDYGMH	NISWNSGSIGYADSVN	VGRGGGYFDY	ND, ND, ND	ND	1 of 9
GFTFDDRAMH	GISWNSGSPGYADSVK	VGRGGKYFDY	ND, ND, ND	ND	1 of 9
GFTFDDDAMK	GISWNSGSIGYADSVK	VGKGGGYFDY	ND, ND, ND	ND	2 of 9
GFTFDDYAMH	GISWNTGSIGYADSVK	VGRGCGYFEY	ND, ND, ND	ND	0 of 9
GFTFDDYAMH	GISWNSGSIGQADSHK	VGRGDGYFDY	ND, ND, ND	ND	1 of 9

Empty control strains, which show no peptide, gave a signal in 21% of pairings with library AAYL51; the median was 4.54 and 95% of these signals were weaker than 3.26. No background was subtracted. For each scFv, signals with the empty controls are counted beside the result. Parent in this assay: reference entry 1.86, copy in this library 0.88.